Drawing on patent publication US9694016B2 (Novartis AG, priority 2013, dated 2017), this text covers IC50 for 31 molecules.

Chains of the proteins cited; added tags and fusions are not shown.
UniProt P04049, whole entry Y340E/Y341E: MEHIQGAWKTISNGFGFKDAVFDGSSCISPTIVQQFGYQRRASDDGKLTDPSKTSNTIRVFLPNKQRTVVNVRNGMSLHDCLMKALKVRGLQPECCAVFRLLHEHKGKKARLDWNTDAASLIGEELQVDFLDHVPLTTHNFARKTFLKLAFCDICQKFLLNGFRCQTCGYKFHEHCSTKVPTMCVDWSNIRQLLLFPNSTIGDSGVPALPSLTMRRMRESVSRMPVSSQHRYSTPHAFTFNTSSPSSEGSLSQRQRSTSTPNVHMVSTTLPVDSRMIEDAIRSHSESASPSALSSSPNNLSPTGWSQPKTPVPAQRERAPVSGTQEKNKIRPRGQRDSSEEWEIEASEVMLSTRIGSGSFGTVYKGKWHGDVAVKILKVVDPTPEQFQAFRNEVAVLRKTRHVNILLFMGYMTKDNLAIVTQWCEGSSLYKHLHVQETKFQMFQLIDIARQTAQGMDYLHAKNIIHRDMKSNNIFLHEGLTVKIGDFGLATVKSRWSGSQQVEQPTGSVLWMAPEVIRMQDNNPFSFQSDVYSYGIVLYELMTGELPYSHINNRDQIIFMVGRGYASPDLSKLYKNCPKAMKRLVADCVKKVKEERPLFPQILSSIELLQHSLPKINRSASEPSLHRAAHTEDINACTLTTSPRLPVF

The first test has as its target C-Raf FL (full-length C-Raf protein, Y340E and Y341E activating mutations) (Homo sapiens (Human), UniProt P04049, Y340E/Y341E). The class given is biochemical. The conditions noted are these: AlphaScreen, 60 min pre-incubation, 1 hour reaction; read-out: c-Raf FL IC-50.
Regarding `CCOc1nnc(-c2cc(NC(=O)c3cnnc(C(F)(F)F)c3)ccc2C)cc1N1CCOCC1` [Example 570, N-(3-(6-ethoxy-5-morpholinopyridazin-3-yl)-4-methylphenyl)-6-(trifluoromethyl)pyridazine-4-carboxamide], the IC50 came out at 0.3 nM.
As for `Cc1ccc(NC(=O)c2ccnc(C(C)(C)C#N)c2)cc1-c1cc(N2CCOCC2)c(OC(C)C)nn1` [Example 596, 2-(2-cyanopropan-2-yl)-N-(3-(6-isopropoxy-5-morpholinopyridazin-3-yl)-4-methylphenyl)isonicotinamide], the IC50 is 0.3 nM.
Turning to `Cc1ccc(NC(=O)c2cc(CO)cc(C(F)(F)F)c2)cc1-c1cc(N2CCOCC2)c(=O)n(C)c1` [Example 469, 3-(hydroxymethyl)-N-(4-methyl-3-(1-methyl-5-morpholino-6-oxo-1,6-dihydropyridin-3-yl)phenyl)-5-(trifluoromethyl)benzamide], the IC50 turned out to be 0.6 nM.
On the same count and under the same terms, the value for `COc1cccc(NC(=O)c2ccc(C)c(-c3cc(N4CCOCC4)c(=O)n(C)c3)c2)c1` [Example 440, N-(3-methoxyphenyl)-4-methyl-3-(1-methyl-5-morpholino-6-oxo-1,6-dihydropyridin-3-yl)benzamide] was 22.5 nM.
On the same count and under the same terms, the same measure for `Cc1ccc(NC(=O)c2cnnc(C(C)(C)C#N)c2)cc1-c1cc(N2CCOCC2)c(OC2CCOCC2)nn1` [Example 583, 6-(2-cyanopropan-2-yl)-N-(4-methyl-3-(5-morpholino-6-((tetrahydro-2H-pyran-4-yl)oxy)pyridazin-3-yl)phenyl)pyridazine-4-carboxamide]: 0.3 nM.
The same measure, in the same setting: the same measure for `Cc1ncc(NC(=O)c2ccnc(C(C)C)c2)cc1-c1ccc(C#N)c(N2CCOCC2)c1` [Example 686, N-(5-(4-cyano-3-morpholinophenyl)-6-methylpyridin-3-yl)-2-isopropylisonicotinamide]: 0.2 nM.
Turning to `Cc1ncc(NC(=O)c2ccnc(S(C)(=O)=O)c2)cc1-c1cc(N2CCOCC2)c(OC2CCOCC2)nn1` [Example 632, N-(6-methyl-5-(5-morpholino-6-((tetrahydro-2H-pyran-4-yl)oxy)pyridazin-3-yl)pyridin-3-yl)-2-(methylsulfonyl)isonicotinamide], the IC50 was found to be 1.8 nM.
Still for that read-out and setting: the value for `CCNc1nc(-c2cc(NC(=O)c3cccc(C(F)F)c3)ccc2C)cc(N2CCOCC2)n1` [Example 698, 3-(difluoromethyl)-N-(3-(2-(ethylamino)-6-morpholinopyrimidin-4-yl)-4-methylphenyl)benzamide] was 0.2 nM; that for `Cc1ncc(C(=O)Nc2cccc(C(F)(F)F)c2)cc1-c1cc(N2CCOCC2)c(=O)n(C)c1` [Example 443, 1′,2-dimethyl-5′-morpholino-6′-oxo-N-(3-(trifluoromethyl)phenyl)-1′,6′-dihydro-[3,3′-bipyridine]-5-carboxamide] was 1.7 nM.
On the same count and under the same terms, the same measure for `CCNc1nc(-c2cc(NC(=O)c3cccc(-c4nnco4)c3)ccc2C)cc(N2CCOCC2)n1` [Example 699, N-(3-(2-(ethylamino)-6-morpholinopyrimidin-4-yl)-4-methylphenyl)-3-(1,3,4-oxadiazol-2-yl)benzamide]: 0.7 nM.
As to `Cc1ccc(NC(=O)c2ccnc(C(C)(F)F)c2)cc1-c1cc(N2CCOCC2)n(C)c(=O)c1` [Example 471, 2-(1,1-difluoroethyl)-N-(4-methyl-3-(1-methyl-6-morpholino-2-oxo-1,2-dihydropyridin-4-yl)phenyl)isonicotinamide], the IC50 was 0.2 nM.
Take `Cc1ccc(NC(=O)c2cccc(C(F)(F)F)c2)cc1-c1cc(N2CCOCC2)c2oc(=O)[nH]c2c1` [Example 827, N-(4-methyl-3-(7-morpholino-2-oxo-2,3-dihydrobenzo[d]oxazol-5-yl)phenyl)-3-(trifluoromethyl)benzamide]: the IC50 was found to be 0.2 nM.
For `CCNc1nc(-c2cc(C(=O)Nc3cccc(C(C)(C)C#N)c3)ccc2C)cc(N2CCOCC2)n1` [Example 732, N-(3-(2-cyanopropan-2-yl)phenyl)-3-(2-(ethylamino)-6-morpholinopyrimidin-4-yl)-4-methylbenzamide], the IC50 worked out at 0.6 nM.

The same test, now with this note: AlphaScreen, 60 min pre-incubation, reaction 1 hour at room temperature; read-out: c-Raf FL IC-50.
Consider `Cc1ccc(NC(=O)c2ccnc(C(C)(C)C#N)c2)cc1-c1nc(N2CCOCC2)c2c(cnn2C)n1` [Example 861, 2-(2-cyanopropan-2-yl)-N-(4-methyl-3-(1-methyl-7-morpholino-1H-pyrazolo[4,3-d]pyrimidin-5-yl)phenyl)isonicotinamide], for which the IC50 was found to be 0.6 nM.
The same measure, in the same setting: the same measure for `CCn1cc(C(=O)Nc2cnc(C)c(-c3cc(N4CCOCC4)nc(N4CC(O)C4)c3)c2)cc(C(F)(F)F)c1=O` [Example 1086, 1-ethyl-N-(2′-(3-hydroxyazetidin-1-yl)-2-methyl-6′-morpholino-[3,4′-bipyridin]-5-yl)-6-oxo-5-(trifluoromethyl)-1,6-dihydropyridine-3-carboxamide]: 3.29 nM; for `Cc1ncc(NC(=O)c2ccnc(C(C)(C)F)c2)cc1-c1cc(N2CCOCC2)c(OC(C)C)nn1` [Example 911, 2-(2-fluoropropan-2-yl)-N-(5-(6-isopropoxy-5-morpholinopyridazin-3-yl)-6-methylpyridin-3-yl)isonicotinamide]: 1.2 nM.
On the same count and under the same terms, the value for `CCOc1cc(-c2cc(NC(=O)c3ccnc(C(C)(C)O)c3)cnc2C)cc(N2CCOCC2)n1` [Example 1148, N-(2′-ethoxy-2-methyl-6′-morpholino-[3,4′-bipyridin]-5-yl)-2-(2-hydroxypropan-2-yl)isonicotinamide] was 2.29 nM; that for `Cc1ccc(NC(=O)c2cc(C(C)(C)O)ccn2)cc1-c1cnc(OC(C)C)c(N2CCOCC2)c1` [Example 949, 4-(2-hydroxypropan-2-yl)-N-(3-(6-isopropoxy-5-morpholinopyridin-3-yl)-4-methylphenyl)picolinamide] was 1.38 nM; that for `Cc1ncc(NC(=O)c2ccnc(C(C)(C)O)c2)cc1-c1cc(N2CCOCC2)c2nccn2c1` [Example 878, 2-(2-hydroxypropan-2-yl)-N-(6-methyl-5-(8-morpholinoimidazo[1,2-a]pyridin-6-yl)pyridin-3-yl)isonicotinamide] was 19.6 nM.
Still for that read-out and setting: the same measure for `Cc1ccc(NC(=O)c2ccnc(C(C)(F)F)c2)cc1-c1cc(N2CCOCC2)nc(N2CC(O)C2)c1` [Example 1078, 2-(1,1-difluoroethyl)-N-(3-(2-(3-hydroxyazetidin-1-yl)-6-morpholinopyridin-4-yl)-4-methylphenyl)isonicotinamide]: 0.79 nM; for `Cc1ccc(NC(=O)c2ccnc(C(F)F)c2)cc1-c1cc(OC2CCOCC2)nc(N2CCOCC2)c1` [Example 1151, 2-(difluoromethyl)-N-(4-methyl-3-(2-morpholino-6-((tetrahydro-2H-pyran-4-yl)oxy)pyridin-4-yl)phenyl)isonicotinamide]: 0.18 nM.
Consider `Cc1ccc(NC(=O)c2ccnc(C(C)(C)O)c2)cc1-c1cc(OC2CCOCC2)nc(N2CCOCC2)c1` [Example 1150, 2-(2-hydroxypropan-2-yl)-N-(4-methyl-3-(2-morpholino-6-((tetrahydro-2H-pyran-4-yl)oxy)pyridin-4-yl)phenyl)isonicotinamide], for which the IC50 is 0.5 nM.
The same measure, in the same setting: the same measure for `Cc1ccc(NC(=O)c2ccnc(C(C)(C)C#N)c2)cc1-c1cc(N2CCOCC2)c(S(C)(=O)=O)nn1` [Example 931, 2-(2-cyanopropan-2-yl)-N-(4-methyl-3-(6-(methylsulfonyl)-5-morpholinopyridazin-3-yl)phenyl)isonicotinamide]: 0.77 nM.

The test is the same for the next values; noted with them: Table 2; AlphaScreen, 1 hour reaction; read-out: c-Raf FL IC-50.
Turning to `Cc1ccc(NC(=O)c2cn(C(C)C)nc2C)cc1-c1cc(N2CCOCC2)c(=O)n(C)c1` [Example 367, 1-isopropyl-3-methyl-N-(4-methyl-3-(1-methyl-5-morpholino-6-oxo-1,6-dihydropyridin-3-yl)phenyl)-1H-pyrazole-4-carboxamide], the IC50 came out at 3 nM.
On to `Cc1ccc(NC(=O)c2cccc(-c3nnco3)c2)cc1-c1cc(N2CCOCC2)c(=O)n(C)c1` [Example 349, N-(4-methyl-3-(1-methyl-5-morpholino-6-oxo-1,6-dihydropyridin-3-yl)phenyl)-3-(1,3,4-oxadiazol-2-yl)benzamide], for which the IC50 came to 1.3 nM.
As for `Cc1ccc(NC(=O)c2cccc(C(F)(F)F)c2)cc1-c1cc(C2CCOCC2)nc(N2CCOCC2)c1` [Example 107, N-(4-methyl-3-(2-morpholino-6-(tetrahydro-2H-pyran-4-yl)pyridin-4-yl)phenyl)-3-(trifluoromethyl)benzamide], the IC50 was determined as 0.4 nM.
Same read-out and setting: the value for `Cn1cc(-c2cc(NC(=O)c3ccnc(C(C)(F)F)c3)cnc2Cl)cc(N2CCOCC2)c1=O` [Example 405, N-(2-chloro-1′-methyl-5′-morpholino-6′-oxo-1′,6′-dihydro-[3,3-bipyridin]-5-yl)-2-(1,1-difluoroethyl)isonicotinamide] was 1.3 nM; that for `COc1ccc(C(=O)Nc2cnc(Cl)c(-c3cc(N4CCOCC4)c(=O)n(C)c3)c2)cc1C(F)(F)F` [Example 408, N-(2-chloro-1′-methyl-5′-morpholino-6′-oxo-1′,6′-dihydro-[3,3-bipyridin]-5-yl)-4-methoxy-3-(trifluoromethyl)benzamide] was 2.6 nM; that for `Cc1ccc(NC(=O)c2cnnc(C(F)(F)F)c2)cc1-c1cnc(OC2CCOCC2)c(N2CCOCC2)c1` [Example 275, N-(4-methyl-3-(5-morpholino-6-((tetrahydro-2H-pyran-4-yl)oxy)pyridin-3-yl)phenyl)-6-(trifluoromethyl)pyridazine-4-carboxamide] was 0.2 nM.
Still for that read-out and setting: the same measure for `Cc1ccc(NC(=O)c2ccnc(S(C)(=O)=O)c2)cc1-c1cnc(OC2CCOCC2)c(N2CCOCC2)c1` [Example 274, N-(4-methyl-3-(5-morpholino-6-((tetrahydro-2H-pyran-4-yl)oxy)pyridin-3-yl)phenyl)-2-(methylsulfonyl)isonicotinamide]: 0.4 nM.
The same measure, in the same setting: the same measure for `Cc1ncc(NC(=O)c2cc(C(F)(F)F)nn2C)cc1-c1cc(N2CCOCC2)c(=O)n(C)c1` [Example 382, N-(1′,2-dimethyl-5′-morpholino-6′-oxo-1′,6′-dihydro-[3,3′-bipyridin]-5-yl)-1-methyl-3-(trifluoromethyl)-1H-pyrazole-5-carboxamide]: 300 nM.
